Reference: ChEMBL document CHEMBL2046406 (J Med Chem, 2012)

Amino acid sequences for entries named in this document (tags omitted). A change or cut given only in a name is not applied to a line headed by its entry.
UniProt P41145: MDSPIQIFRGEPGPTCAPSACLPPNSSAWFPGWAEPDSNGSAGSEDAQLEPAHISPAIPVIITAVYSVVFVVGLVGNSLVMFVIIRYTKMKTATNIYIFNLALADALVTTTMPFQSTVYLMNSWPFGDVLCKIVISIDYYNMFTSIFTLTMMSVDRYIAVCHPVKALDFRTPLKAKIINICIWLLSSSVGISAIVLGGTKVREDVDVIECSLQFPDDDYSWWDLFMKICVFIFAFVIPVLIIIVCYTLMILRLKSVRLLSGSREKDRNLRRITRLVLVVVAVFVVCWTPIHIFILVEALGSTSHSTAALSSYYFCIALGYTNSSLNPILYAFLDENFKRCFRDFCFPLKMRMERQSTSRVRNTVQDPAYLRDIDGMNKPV

Target: Kappa-type opioid receptor (Homo sapiens, UniProt P41145)
Experiment: Agonist activity at human kappa opioid receptor expressed in CHO cells assessed as stimulation of […]GTPgammaS binding after 60 mins by scintillation counting relative to control
Format: functional, cell-based
Method in brief: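 Membranes from CHO cells stably expressing human KOR (15 μg protein per tube) or MOR (7.5 μg protein per tube). Nonspecific binding with 10 μM GTPγS. Filtration, then scintillation counting. Triplicate, at least three experiments.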

**Q.** Which Emax does the source give for `CN(C(=O)Cc1ccc(Cl)c(Cl)c1)C1CCCCC1N1CCCC1` (stereo unspecified) here?
**A.** 140%
